Test results taken from PubChem BioAssay AID588489 (Sanford-Burnham Center for Chemical Genomics, 2011).
The entries are a selection whose mix differs from that of the whole data set. Some structures show a salt or complex split into parts, the way the source records it. Activity calls are given as the source filed them. Cut-off read from the data, not from the text of the source: active = inhibition above about 35% (passing the limit was not always enough); inactive = the rest.

Chains of the proteins cited; added tags and fusions are not shown.
UniProt P11940, whole entry: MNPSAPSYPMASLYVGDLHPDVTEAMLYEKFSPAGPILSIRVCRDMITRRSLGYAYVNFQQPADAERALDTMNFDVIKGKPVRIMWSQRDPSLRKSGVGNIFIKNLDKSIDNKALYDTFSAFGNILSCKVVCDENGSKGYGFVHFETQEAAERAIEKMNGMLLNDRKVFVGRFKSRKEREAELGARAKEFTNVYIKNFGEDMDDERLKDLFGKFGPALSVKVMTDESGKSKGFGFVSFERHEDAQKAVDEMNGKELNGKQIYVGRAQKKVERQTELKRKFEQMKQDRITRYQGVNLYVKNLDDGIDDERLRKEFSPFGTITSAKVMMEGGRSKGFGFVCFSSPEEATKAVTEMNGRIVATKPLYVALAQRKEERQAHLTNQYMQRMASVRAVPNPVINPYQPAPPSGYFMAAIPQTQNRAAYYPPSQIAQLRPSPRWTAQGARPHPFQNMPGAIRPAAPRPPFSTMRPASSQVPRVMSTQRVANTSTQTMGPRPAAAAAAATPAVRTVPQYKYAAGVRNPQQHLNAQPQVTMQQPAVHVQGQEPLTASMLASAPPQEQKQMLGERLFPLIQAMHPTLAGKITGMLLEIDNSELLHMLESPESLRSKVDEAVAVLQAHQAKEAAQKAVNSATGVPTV

The compounds below were run against Polyadenylate-binding protein 1 (Homo sapiens) (UniProt P11940) (assay: PAM2 peptide displacement from PABP1 MLLE – biochemical, fluorescence polarization, FITC-PAM2, GST-MLLE, primary screen (AID 588489;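 note: plate controls were DMSO wells with GST-MLLE for no effect and wells lacking GST-MLLE protein for full effect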)). Settings: at 20 µM, stronger effect = higher value.
`Cc1cc(C)cc(OP(C)(N)=O)c1` (stereo not drawn) was tested, and the inhibition was inactive: 14.3%. In the case of `COc1ccc(OP(C)(=O)Nc2cccc(F)c2)cc1` (stereo not drawn), the inhibition is reported as inactive: -8.69%. For `COc1ccccc1OP(C)(=O)Nc1cc(Cl)ccc1C` (stereo not drawn), the inhibition was inactive: -8.56%. With `Cc1ccc(NP(C)(=O)Oc2ccccc2)c(C)c1` (stereo not drawn) the inhibition was inactive: 1.81%. For `COc1ccccc1OP(C)(=O)Nc1ccc(C)cc1` (stereo not drawn), the inhibition was inactive: 6.27%. With `CCOC(=O)c1ccc(NP(C)(=O)Oc2ccccc2)cc1` (stereo not drawn) the inhibition was inactive: 7.01%. `O=[N+]([O-])c1ccc2c(c1)C=Nc1ccccc1O2` was tested, and the inhibition was inactive: 2.13%. With `Cc1cccc(C)c1OP(C)(N)=O` (stereo not drawn) the inhibition was inactive: 1.99%. For `CC(C)(C)c1ccc(OP(C)(=O)Nc2ccc(SC(F)(F)F)cc2)cc1` (stereo not drawn), the inhibition was inactive: -16.5%. With `O=[N+]([O-])c1cc([N+](=O)[O-])c(Nc2cccnc2)c([N+](=O)[O-])c1` the inhibition was inactive: 3.72%. With `CCN(CC)CCCOC(=O)C(O)(c1ccccc1)c1ccccc1` the inhibition was inactive: 4.32%. For `CP(=O)(Nc1ccccn1)Oc1ccc(Cl)cc1` (stereo not drawn), the inhibition was inactive: 7.81%. For `CCOC(=O)c1ccc(NP(C)(=O)Oc2ccc(OC)cc2)cc1` (stereo not drawn), the inhibition was inactive: 11.7%. In the case of `O=[N+]([O-])c1cc([N+](=O)[O-])c(O)c([N+](=O)[O-])c1.c1ccc(Oc2ccncc2)cc1`, the inhibition is reported as inactive: -7.94%. `CCOP(C)(=S)SCC(=O)NC(C)C(=O)O` (stereo not drawn) was tested, and the inhibition was inactive: -6.52%. `Cc1cc(C)cc(OP(C)(=O)Nc2ccc(SC(F)(F)F)cc2)c1` (stereo not drawn) was tested, and the inhibition was inactive: 10.7%. In the case of `CCc1ccc(OP(C)(=O)N2CCN(c3ccc([N+](=O)[O-])cc3)CC2)cc1` (stereo not drawn), the inhibition is reported as inactive: 1.35%. `CP(=O)(NC(=O)Nc1ccccc1)Oc1ccccc1` (stereo not drawn) was tested, and the inhibition was inactive: 2.39%. `CP(=O)(Oc1ccccc1)OC(c1ccccc1)C(F)(F)F` (stereo not drawn) was tested, and the inhibition was inactive: -1.07%. With `Cc1ccc(Nc2c([N+](=O)[O-])cc([N+](=O)[O-])cc2[N+](=O)[O-])cc1` the inhibition was inactive: -9.88%. In the case of `Cc1cccc(C)c1OP(C)(=O)Nc1ccc(SC(F)(F)F)cc1` (stereo not drawn), the inhibition is reported as inactive: 0.89%. For `CP(=O)(Nc1ccc(SC(F)(F)F)cc1)Oc1ccc(Cl)cc1` (stereo not drawn), the inhibition was inactive: 3.65%. For `CP(=O)(Nc1ccccc1Br)Oc1ccccc1` (stereo not drawn), the inhibition was inactive: 2.9%. With `COc1ccccc1OP(C)(=O)Nc1ccccc1` (stereo not drawn) the inhibition was inactive: 18.4%. With `CP(=S)(Nn1cnnc1)Oc1ccccc1` (stereo not drawn) the inhibition was inactive: -0.06%. For `CP(=O)(Nc1ccc(SC(F)(F)F)cc1)Oc1ccccc1` (stereo not drawn), the inhibition was inactive: -7.22%. `CCCOc1ccc(NP(C)(=O)Oc2ccc(Cl)cc2)cc1` (stereo not drawn) was tested, and the inhibition was inactive: 0.24%. `COc1ccccc1OP(C)(=O)Nc1c(C)cccc1C` (stereo not drawn) was tested, and the inhibition was inactive: -10.9%. In the case of `CN1CCCCC1COC(=O)C1(O)c2ccccc2CCc2ccccc21` (stereo not drawn), the inhibition is reported as inactive: -0.33%. For `CCOC(=O)C(CC)C1=NC(C)(C)Cc2ccccc21.O=[N+]([O-])c1cc([N+](=O)[O-])c(O)c([N+](=O)[O-])c1` (stereo not drawn), the inhibition was inactive: -0.28%. `O=[N+]([O-])c1cc([N+](=O)[O-])c(Nc2nnnn2CCO)c([N+](=O)[O-])c1` was tested, and the inhibition was inactive: -5.16%. In the case of `CC1=C2N=C(C=C3N=C(C(C)=C4[N-][C@@](C)([C@@H]5N=C1[C@](C)(CCC(=O)NC[C@@H](C)OP(=O)([O-])O[C@H]1[C@@H](O)[C@@H](n6cnc7cc(C)c(C)cc76)O[C@@H]1CO)[C@H]5CC(N)=O)[C@@](C)(CC(N)=O)[C@@H]4CCC(N)=O)[C@@](C)(CC(N)=O)[C@@H]3CCC(N)=O)C(C)(C)[C@@H]2CCC(N)=O.[C-]#N.[Co+3]`, the inhibition is reported as inactive: -2.68%. For `Cc1nc2ccc3ccccc3c2s1.O=[N+]([O-])c1cc([N+](=O)[O-])c(O)c([N+](=O)[O-])c1`, the inhibition was inactive: -12.3%. In the case of `O=[N+]([O-])c1cc([N+](=O)[O-])c(-c2cnn(-c3ccccc3)c2)c([N+](=O)[O-])c1`, the inhibition is reported as inactive: -4.83%. With `CN(Cc1cccnc1)C(=O)COc1ccc(Cl)c(Cl)c1.O=[N+]([O-])c1cc([N+](=O)[O-])c(O)c([N+](=O)[O-])c1` the inhibition was inactive: 4.25%. With `O=[N+]([O-])c1cc([N+](=O)[O-])c(-n2nnc3ccccc32)c([N+](=O)[O-])c1` the inhibition was inactive: -11.6%. With `Cc1ccc(C)c(NP(C)(=O)Oc2ccccc2)c1` (stereo not drawn) the inhibition was inactive: 4.29%. For `CP(=O)(Nc1cccc(Br)c1)Oc1ccccc1` (stereo not drawn), the inhibition was inactive: -2.4%. With `Cc1cc(C)cc(OP(C)(=O)Nc2ccccn2)c1` (stereo not drawn) the inhibition was inactive: 5.6%. With `CCOC(=O)c1ccc(NP(C)(=O)Oc2cc(C)cc(C)c2)cc1` (stereo not drawn) the inhibition was inactive: 6.96%. `Cc1cc(C)cc(OP(C)(=O)Nc2ccc(C)cc2C)c1` (stereo not drawn) was tested, and the inhibition was inactive: -4.05%. In the case of `COc1ccccc1OP(C)(=O)Nc1cccc(Br)c1` (stereo not drawn), the inhibition is reported as inactive: 3.14%. For `CC1=NCCc2c1[nH]c1ccccc21.O=[N+]([O-])c1cc([N+](=O)[O-])c(O)c([N+](=O)[O-])c1`, the inhibition was inactive: 4.43%. With `O=C(O)c1cccc(Nc2c([N+](=O)[O-])cc([N+](=O)[O-])cc2[N+](=O)[O-])c1` the inhibition was inactive: 0.22%. In the case of `CP(=O)(Nc1ccccc1)Oc1ccc(F)cc1` (stereo not drawn), the inhibition is reported as inactive: -8.92%. For `CCCCCOc1ccc(NP(C)(=O)Oc2ccc(Cl)cc2Cl)cc1` (stereo not drawn), the inhibition was inactive: -5.77%. For `O=[N+]([O-])c1cc([N+](=O)[O-])c(OC2CCCCC2O)c([N+](=O)[O-])c1` (stereo not drawn), the inhibition was inactive: 1.07%. `Cc1c([N+](=O)[O-])cc([N+](=O)[O-])c(Br)c1[N+](=O)[O-]` was tested, and the inhibition was inactive: -16.9%. For `CCN(CC)CCCOC(=O)C(O)(c1ccccc1)C1CCCCC1` (stereo not drawn), the inhibition was inactive: -0.71%. For `CCOC(=O)c1ccc(NP(C)(=O)Oc2ccc(F)cc2)cc1` (stereo not drawn), the inhibition was inactive: 4.46%. With `COc1ccc(OP(C)(=O)Nc2ccc(SC(F)(F)F)cc2)cc1` (stereo not drawn) the inhibition was inactive: -4.11%. With `COc1ccc2c(c1O)-c1c(O)c(OC)cc3c1[C@H](C2)[N+](C)(C)CC3.O=[N+]([O-])c1cc([N+](=O)[O-])c([O-])c([N+](=O)[O-])c1[O-]` the inhibition was inactive: 13.1%. With `O=C(OC1CN2CCC1CC2)c1ccc([N+](=O)[O-])cc1` (stereo not drawn) the inhibition was inactive: 5.48%.
